In this assay the test system is testicular germ cell proliferation. The assay can be described thus: Screen of SSC / differentiating spermatogonia receptor ligands in the iterative culture process. As to conditions: ligand at the concentration listed in Table 5; effective to date at improving germ cell proliferation. Type of assay: cell-based, human. An excerpt: A process for identification and selection of receptor ligands capable of improving testicular germ cell proliferation was developed. The process uses expression data obtained by mining scRNA-seq data obtained from testicular tissue (FIG. 27). The process systematically prioritizes candidates for spermatogonia ligands through a series of bioinformatics analyses and filtering. The process comprises identifying and selecting potential ligands based on their receptor expression in State 1 SSCs (active stem cells) and State 2/3 differentiating spermatogonia (differentiated germ cells with strong proliferation ability), or any combination thereof.
More specifically, the approach was based on the single-cell RNA sequencing transcriptome profile of the adult human testis atlas (Guo, J., Grow, E. J., Mlcochova, H., Maher, G. J., Lindskog, C., Nie, X., Guo, Y., Takei, Y., Yun, J., Cai, L., et al. (2018). The adult human testis transcriptional cell atlas. Cell Research 28, 1141. 10.1038/s41422-018-0099-2; the disclosure of all of which is incorporated herein in its entirety), which provides a comprehensive characterization of cell types in the human adult testis. Pseudo-bulk RNA-seq analysis was used, which involves aggregating individual cells into groups to enhance the receptor gene expression signal on SSCs and differentiating spermatogonia. […]

B1: BMP2: ligand of BMPR1B/BMPR1A/BMPR2 (protein, UniProt P12643 283-396, looked up)
Bone morphogenetic protein 2: QAKHKQRKRLKSSCKRHPLYVDFSDVGWNDWIVAPPGYHAFYCHGECPFPLADHLNSTNHAIVQTLVNSVNSKIPKACCVPTELSAISMLYLDENEKVVLKNYQDMVVEGCGCR
Turning to B1, the Effective entry is “Yes”.

For the origin of these results see US20230399608A1, “PROCESS FOR ESTABLISHING A HUMAN TESTICULAR TISSUE CULTURE SYSTEM” (PATERNA BIOSCIENCES INC., priority 2021, published 2023).
